Measured affinities in a library of Ab-95 light chain variants

Source: Engelhart et al. 2022 (doi:10.1038/s41597-022-01779-4), MIT Lincoln Laboratory and A-Alpha Bio; data file from the FLAb repository.

Target peptide (SARS-CoV-2 spike, HR2 region): PDVDLGDISGINAS

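Phage display of a naive human antibody library on the peptide gave the parent. Library AAYL52 holds single substitutions and randomly drawn double and triple substitutions in the CDRs. Affinity was read by AlphaSeq, a pooled yeast mating assay with surface-displayed partners. Binding brings cells together so that they mate, and sequencing counts the barcode pairs among the diploids. Read counts were normalised to the haploid input and turned into Kd by a linear fit to BCL2-family pairs of known affinity, for each replicate. There are three technical replicates.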

Parent: Ab-95, a human scFv built as VH, the linker GGGGSGGGGSGGGGS, VL. Only the CDRs of the light chain vary.
VH: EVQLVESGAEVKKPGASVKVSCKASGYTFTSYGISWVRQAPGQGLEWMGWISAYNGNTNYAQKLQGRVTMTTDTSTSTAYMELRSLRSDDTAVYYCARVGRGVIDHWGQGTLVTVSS
VL: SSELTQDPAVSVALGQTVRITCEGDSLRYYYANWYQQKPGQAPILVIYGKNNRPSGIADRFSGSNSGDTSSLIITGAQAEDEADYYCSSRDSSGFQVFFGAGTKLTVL

Changes read parent residue, position, new residue, counted from the first residue of the VL shown.
Numbers give log10(Kd / nM), so 0 is 1 nM and 3 is 1 µM. Smaller is tighter.
Averages over replicates are reported, and they cover detected replicates only.
A pair that was not seen in any replicate is written "nd"; this usually means weak binding, but a binder can also be missed.
Background: pairings of library AAYL52 with three empty control strains gave a value in 28% of cases (median 3.91, 5th percentile 2.90). Values in that range, when seen in few replicates, are hard to tell from nonspecific mating.

| changes | mean log10 Kd (nM) | replicates with signal |
|---|---|---|
| L27H Y30V F98H | 3.36 | 2 of 3 |
| R53M Q96H | 3.48 | 3 of 3 |
| R28P K50F S55W | 3.38 | 2 of 3 |
| R28K Y29E K50H | 2.10 | 3 of 3 |
| N52W P54A F98C | 3.44 | 3 of 3 |
| D25E Y29M S55T | 2.71 | 3 of 3 |
| R28P Y29M S89G | 2.52 | 3 of 3 |
| Y29H S89C S92Y | 2.10 | 3 of 3 |
| R28A Y29W N52T | 2.50 | 3 of 3 |
| R28F Y30N S93W | 1.34 | 3 of 3 |
| S88W F95C V97S | 2.28 | 3 of 3 |
| Y31C S89I S93G | 2.43 | 3 of 3 |
| G24T Y30L Y31E | 1.91 | 3 of 3 |
| G24K S26Y P54G | 3.58 | 2 of 3 |
| R28E A32H R90M | 3.86 | 2 of 3 |
| G49Y S55N Q96F | 3.91 | 1 of 3 |
| A32Y N33Y S88W | 4.57 | 2 of 3 |
| E23N P54H R90D | 4.11 | 1 of 3 |
| N51K R53M S55D | 3.97 | 2 of 3 |
| S89A F95R Q96A | 2.29 | 3 of 3 |
| L27F S89G | 3.33 | 3 of 3 |
| G49S N52H F98I | 3.11 | 3 of 3 |
| G49I N52Y R53L | 3.86 | 1 of 3 |
| L27C A32V G49R | 3.11 | 3 of 3 |
| D25H N51F Q96L | nd | 0 of 3 |
| S26T Y29K D91H | 2.76 | 3 of 3 |
| R28I G49T D91V | 4.04 | 3 of 3 |
| D25P L27M R28N | 2.32 | 3 of 3 |
| R28Y G49Q S88A | 3.30 | 1 of 3 |
| G24S P54H S89H | 3.70 | 2 of 3 |
| N33A S55L S88T | 4.13 | 1 of 3 |
| R28Q A32T S88R | 2.79 | 3 of 3 |
| E23A A32T P54W | 2.90 | 3 of 3 |
| E23R S26I G94V | 2.70 | 2 of 3 |
| E23D S55G | 1.47 | 3 of 3 |
| A32F N52A P54W | 5.93 | 1 of 3 |
| E23Q L27Q G49W | nd | 0 of 3 |
| Y29D Y30R S55W | 0.93 | 3 of 3 |
| D25A Y29M N33W | 5.05 | 1 of 3 |
| G24D R28W F95S | 4.19 | 1 of 3 |
| L27G Y31W S55D | 2.93 | 3 of 3 |
| G24Q S26M R28E | nd | 0 of 3 |
| D25A K50H N51M | 3.02 | 2 of 3 |
| G49M S92I Q96Y | 4.26 | 2 of 3 |
| G24C R53A | 4.44 | 3 of 3 |
| N33S S89D F98P | 3.58 | 2 of 3 |
| R28C D91N | 3.75 | 2 of 3 |
| N52A D91E V97H | 3.00 | 2 of 3 |
| G24F K50P Q96I | 4.08 | 3 of 3 |
| E23K R90L F98E | 3.73 | 1 of 3 |
| G49A S89P V97F | 3.64 | 1 of 3 |
| G24K N51W R53P | 3.73 | 3 of 3 |
| N51H D91L S93T | nd | 0 of 3 |
| Y31M N33C S89D | 3.89 | 1 of 3 |
| S26E Y29N S55A | 2.99 | 2 of 3 |
| G49I S92L | 4.74 | 1 of 3 |
| Y29K Y31I S93Y | 3.91 | 2 of 3 |
| G49I F95G | 4.22 | 2 of 3 |
| R28P Y31D F95N | 2.39 | 3 of 3 |
| G24S S89G S93P | 3.50 | 2 of 3 |
| G94Q F98P | nd | 0 of 3 |
| E23Q Y29H G94V | 2.57 | 3 of 3 |
| S26E Y31P G49S | 4.13 | 1 of 3 |
| S26I Y29G P54R | 3.79 | 3 of 3 |
| N52S R90W V97K | 3.13 | 2 of 3 |
| Y30F G49E | 3.46 | 1 of 3 |
| N51Y R53W S88M | nd | 0 of 3 |
| D25M L27F N51K | nd | 0 of 3 |
| A32S N52W F98A | 3.97 | 3 of 3 |
| S26V Y31I S55Y | 4.66 | 1 of 3 |
| N51H S55L Q96C | 4.36 | 3 of 3 |
| E23V N52F S55A | 2.33 | 3 of 3 |
| L27S R28N N33R | 3.73 | 3 of 3 |
| Y31V Q96F V97C | 3.02 | 3 of 3 |
| L27I S89N Q96T | 3.27 | 3 of 3 |
| R28G P54D D91N | 4.57 | 2 of 3 |
| D25I S88G S89H | 3.64 | 1 of 3 |
| S55E S88P S92E | 2.95 | 3 of 3 |
| D91N S92L V97K | 5.18 | 2 of 3 |
| N52R S55L S88V | 3.30 | 3 of 3 |

Picked from the list: the 10 lowest averages where every replicate gave a value.

changes,mean log10 Kd (nM),replicates with signal
Y29D Y30R S55W,0.93,3 of 3
R28F Y30N S93W,1.34,3 of 3
E23D S55G,1.47,3 of 3
G24T Y30L Y31E,1.91,3 of 3
R28K Y29E K50H,2.10,3 of 3
Y29H S89C S92Y,2.10,3 of 3
S88W F95C V97S,2.28,3 of 3
S89A F95R Q96A,2.29,3 of 3
D25P L27M R28N,2.32,3 of 3
E23V N52F S55A,2.33,3 of 3